Earlier results in patent US20140105970A1, “ADJUVANT AND ANTIGEN PARTICLE FORMULATION” (published 2014).
Some compounds may have been tested in ways that are not shown here.

Conditions: colour change from colorless to coloured form

| Compound | pH Change (pH range of colour change) |
| --- | --- |
| Cc1c([N+](=O)[O-])cc([N+](=O)[O-])cc1[N+](=O)[O-] | 11.5-13.0 pH |
| O=[N+]([O-])c1cc([N+](=O)[O-])cc([N+](=O)[O-])c1 | 12.0-14.0 pH |
